Results as given in patent US20250195530A1, “POLQ INHIBITORS” (ASTRAZENECA AB, priority 2022, published 2025).

Protein sequences, listed by entry. Tags and fused reporters are not part of them. Residues count along the entry.
UniProt O75417, 1780-2590: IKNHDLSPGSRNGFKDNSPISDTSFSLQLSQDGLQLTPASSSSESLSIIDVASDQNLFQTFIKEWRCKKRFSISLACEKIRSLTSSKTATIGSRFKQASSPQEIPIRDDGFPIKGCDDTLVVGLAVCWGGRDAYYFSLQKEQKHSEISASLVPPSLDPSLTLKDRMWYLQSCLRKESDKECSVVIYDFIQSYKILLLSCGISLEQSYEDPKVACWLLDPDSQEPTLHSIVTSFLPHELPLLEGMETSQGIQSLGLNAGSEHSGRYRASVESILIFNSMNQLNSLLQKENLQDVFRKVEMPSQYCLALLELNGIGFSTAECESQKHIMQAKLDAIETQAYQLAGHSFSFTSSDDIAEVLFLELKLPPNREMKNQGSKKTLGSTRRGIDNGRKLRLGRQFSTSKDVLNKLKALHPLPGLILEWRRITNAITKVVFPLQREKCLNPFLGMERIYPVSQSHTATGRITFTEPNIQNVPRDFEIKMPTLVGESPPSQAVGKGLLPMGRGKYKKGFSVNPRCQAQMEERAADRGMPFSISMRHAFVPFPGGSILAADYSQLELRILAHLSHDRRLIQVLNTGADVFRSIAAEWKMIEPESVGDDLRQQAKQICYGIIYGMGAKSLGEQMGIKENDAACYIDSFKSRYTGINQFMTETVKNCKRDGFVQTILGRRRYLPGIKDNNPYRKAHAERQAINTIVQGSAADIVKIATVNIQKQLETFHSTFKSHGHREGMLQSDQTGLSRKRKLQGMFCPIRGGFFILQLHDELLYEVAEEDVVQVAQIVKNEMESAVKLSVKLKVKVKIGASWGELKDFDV

Target: isolated polymerase domain (I1780-V2590) of DNA polymerase theta (Polθ) (Homo sapiens (Human), UniProt O75417)

SMILES | IC50 [nM]
CC1(Oc2ncnc3c2nc(-c2ccc(OCCN4CCNCC4)cc2Cl)n3Cc2ncc(Cl)s2)CC1 [Example L6, 5-chloro-2-((8-(2-chloro-4-(2-(piperazin-1-yl)ethoxy)phenyl)-6-(1-methylcyclopropoxy)-9H-purin-9-yl)methyl)thiazole] | 3.16
CC1(Oc2ncnc3c2nc(-c2ccc(/C=C/C(=O)O)cc2Cl)n3Cc2cccc(Cl)c2)CC1 [Example 31, (E)-3-(3-Chloro-4-(9-(3-chlorobenzyl)-6-(1-methylcyclopropoxy)-9H-purin-8-yl)phenyl)acrylic acid] | 3.16
CC(C)(Oc1ncnc2c1nc(-c1ccc(OCCN3CCNCC3)cc1Cl)n2Cc1ccccc1)C(F)(F)F [Example 11, 9-Benzyl-8-(2-chloro-4-(2-(piperazin-1-yl)ethoxy)phenyl)-6-((1,1,1-trifluoro-2-methylpropan-2-yl)oxy)-9H-purine] | 2.51
COc1ccc(Cl)cc1Cn1c(-c2ccc(OCC[C@H](C)C(=O)O)cc2Cl)nc2c(OC3(C)CC3)ncnc21 [Example 48, (S)-4-(3-chloro-4-(9-(5-chloro-2-methoxybenzyl)-6-(1-methylcyclopropoxy)-9H-purin-8-yl)phenoxy)-2-methylbutanoic acid] | 5.01
CC(C)Oc1ccc2c(c1)nc(-c1ccc(OCCCNC(=O)OC(C)(C)C)cc1Cl)n2Cc1ccccc1 [Example A2, Tert-butyl (3-(4-(1-benzyl-5-isopropoxy-1H-benzo[d]imidazol-2-yl)-3-chlorophenoxy)propyl)carbamate] | 12.6
CCCCCC(=O)N1CCN(CCOc2ccc(-c3nc4c(OC(C)C)ncnc4n3Cc3ccccc3)c(C)c2)CC1 [Example B5, 1-(4-(2-(4-(9-benzyl-6-isopropoxy-9H-purin-8-yl)-3-methyl-phenoxy)ethyl)piperazin-1-yl)hexan-1-one] | 5.01
Cc1ccnc(Cn2c(-c3ccc(CC(N)=O)cc3Cl)nc3c(OC4(C)CC4)ncnc32)c1 [Example 30, 2-(3-Chloro-4-(6-(1-methylcyclopropoxy)-9-((4-methylpyridin-2-yl)methyl)-9H-purin-8-yl)phenyl)acetamide] | 7.94
CC1(Oc2ncnc3c2nc(-c2ccc(OCCN4C5CNCC4C5)cc2Cl)n3Cc2ccccc2)CC1 [Example R15, 6-(2-(4-(9-benzyl-6-(1-methylcyclopropoxy)-9H-purin-8-yl)-3-chlorophenoxy)ethyl)-3,6-diazabicyclo[3.1.1]heptane] | 2
CC(C)Oc1ccc2c(n1)nc(-c1ccc(OCCN3CCNCC3)cc1Cl)n2Cc1ccccc1 [Example 8, 1-Benzyl-2-(2-chloro-4-(2-(piperazin-1-yl)ethoxy)phenyl)-5-isopropoxy-1H-imidazo[4,5-b]pyridine] | 7.94
CC1(Oc2ncnc3c2nc(-c2ccc(OCCN4CCNCC4)cc2Cl)n3Cc2cscn2)CC1 [Example K2, 4-((8-(2-chloro-4-(2-(piperazin-1-yl)ethoxy)phenyl)-6-(1-methylcyclopropoxy)-9H-purin-9-yl)methyl)thiazole] | 12.6
CC1(Oc2ncnc3c2nc(-c2ccc(OCCN4CCNCC4)cc2Cl)n3CCc2ccncc2)CC1 [Example L1, 8-(2-chloro-4-(2-(piperazin-1-yl)ethoxy)phenyl)-6-(1-methylcyclopropoxy)-9-(2-(pyridin-4-yl)ethyl)-9H-purine] | 25.1
CC1(Oc2ncnc3c2nc(-c2ccc(OCCN4CCNCC4)cc2Cl)n3Cc2ccc(Cl)cn2)CC1 [Example K3, 8-(2-chloro-4-(2-(piperazin-1-yl)ethoxy)phenyl)-9-((5-chloropyridin-2-yl)methyl)-6-(1-methylcyclopropoxy)-9H-purine] | 5.01
CC1(Oc2ncnc3c2nc(-c2ccc(OCCN4CCNCC4)cc2Cl)n3Cc2ccccc2)CCC1 [Example 12, 9-Benzyl-8-(2-chloro-4-(2-(piperazin-1-yl)ethoxy)phenyl)-6-(1-methylcyclobutoxy)-9H-purine] | 3.98
COc1ccnc(Cn2c(-c3ccc(OCCN4CCNCC4)cc3Cl)nc3c(OC4(C)CC4)ncnc32)c1 [Example L5, 8-(2-chloro-4-(2-(piperazin-1-yl)ethoxy)phenyl)-9-((4-methoxypyridin-2-yl)methyl)-6-(1-methylcyclopropoxy)-9H-purine] | 6.31
CC1(Oc2ncnc3c2nc(-c2ccc(OCC(C)(C)C(=O)O)cc2Cl)n3Cc2cccc(Cl)c2)CC1 [Example 32, 3-(3-Chloro-4-(9-(3-chlorobenzyl)-6-(1-methylcyclopropoxy)-9H-purin-8-yl)phenoxy)-2,2-dimethylpropanoic acid] | 5.01
CC1(Oc2ncnc3c2nc(-c2cccc(O[C@H]4C[C@@H](C(=O)O)C4)c2Cl)n3Cc2cccc(Cl)c2)CC1 [Example T257, (1s,3s)-3-(2-chloro-3-(9-(3-chlorobenzyl)-6-(1-methylcyclopropoxy)-9H-purin-8-yl)phenoxy)cyclobutane-1-carboxylic acid] | 3.16
CC1(Oc2ncnc3c2nc(-c2ccc(CC(N)=O)cc2Cl)n3Cc2cc(Cl)ccn2)CC1 [Example 38, 2-(3-Chloro-4-(9-((4-chloropyridin-2-yl)methyl)-6-(1-methylcyclopropoxy)-9H-purin-8-yl)phenyl)acetamide] | 10

More lines, now with the values ahead:

IC50 [nM] | SMILES
39.8 | CC1(Oc2ncnc3c2nc(-c2ccc(OCCN4CCNCC4)cc2Cl)n3CCc2ccccn2)CC1 [Example J11, 8-(2-chloro-4-(2-(piperazin-1-yl)ethoxy)phenyl)-6-(1-methylcyclopropoxy)-9-(2-(pyridin-2-yl)ethyl)-9H-purine]
2 | CC1(Oc2ncnc3c2nc(-c2ccc(OCCN4CCNCC4)cc2Cl)n3CCc2ccccc2)CC1 [Example J12, 8-(2-chloro-4-(2-(piperazin-1-yl)ethoxy)phenyl)-6-(1-methylcyclopropoxy)-9-phenethyl-9H-purine]
3.16 | Cc1cc(OCCCN2CCOCC2)ncc1-c1nc2c(OC3(C)CC3)ncnc2n1Cc1ccccc1 [Example G7, 4-(3-((5-(9-benzyl-6-(1-methylcyclopropoxy)-9H-purin-8-yl)-4-methylpyridin-2-yl)oxy)propyl)morpholine]
10 | C[C@H](Cn1c(-c2ccc(OCCN3CCNCC3)cc2Cl)nc2c(OC3(C)CC3)ncnc21)c1ccccc1 [Example J9, (S)-8-(2-chloro-4-(2-(piperazin-1-yl)ethoxy)phenyl)-6-(1-methylcyclopropoxy)-9-(2-phenylpropyl)-9H-purine]
2.51 | Cc1cc(N2CC(N(C)C)C2)ncc1-c1nc2c(OC3(C)CC3)ncnc2n1Cc1ccccc1 [Example F2, 1-(5-(9-benzyl-6-(1-methylcyclopropoxy)-9H-purin-8-yl)-4-methylpyridin-2-yl)-N,N-dimethylazetidin-3-amine]
3.16 | CN1CCN(CCOc2ccc(-c3nc4c(OC5(C)CC5)ncnc4n3Cc3ccccc3)c(Cl)c2)CC1 [Example 4, 9-Benzyl-8-(2-chloro-4-(2-(4-methylpiperazin-1-yl)ethoxy)phenyl)-6-(1-methylcyclopropoxy)-9H-purine]
2.51 | Cc1cc(OCCN2CCN(C)CC2)ccc1-c1nc2c(OC(C)C)ncnc2n1Cc1ccccc1 [Example 1, 9-Benzyl-6-isopropoxy-8-(2-methyl-4-(2-(4-methylpiperazin-1-yl)ethoxy)phenyl)-9H-purine]
5.01 | CNC(=O)COc1ccc(-c2nc3c(OC4(C)CC4)ncnc3n2Cc2ccccc2)c(Cl)c1 [Example D21, 2-(4-(9-benzyl-6-(1-methylcyclopropoxy)-9H-purin-8-yl)-3-chlorophenoxy)-N-methylacetamide]
3.98 | CN(CCOc1ccc(-c2nc3c(OC4(C)CC4)ncnc3n2Cc2ccccc2)c(Cl)c1)CC(=O)O [Example D30, N-(2-(4-(9-benzyl-6-(1-methylcyclopropoxy)-9H-purin-8-yl)-3-chlorophenoxy)ethyl)-N-methylglycine]
2.51 | CC1(Oc2ncnc3c2nc(-c2ccc(OCCN4CC(O)C4)cc2Cl)n3Cc2ccccc2)CC1 [Example H14, 1-(2-(4-(9-benzyl-6-(1-methylcyclopropoxy)-9H-purin-8-yl)-3-chlorophenoxy)ethyl)azetidin-3-ol]
2 | CC1(Oc2ncnc3c2nc(-c2ccc(OCCN4CCN[C@@H](CO)C4)cc2Cl)n3Cc2ccccc2)CC1 [Example R18, (R)-(4-(2-(4-(9-benzyl-6-(1-methylcyclopropoxy)-9H-purin-8-yl)-3-chlorophenoxy)ethyl)piperazin-2-yl)methanol]
2 | CC(=O)N1CCN(CCOc2ccc(-c3nc4c(OC5(C)CC5)ncnc4n3Cc3ccccc3)c(Cl)c2)CC1 [Example D5, 1-(4-(2-(4-(9-benzyl-6-(1-methylcyclopropoxy)-9H-purin-8-yl)-3-chlorophenoxy)ethyl)piperazin-1-yl)ethan-1-one]
2 | CC1(Oc2ncnc3c2nc(-c2ccc(OCCN4C[C@@H]5CC[C@H]4CN5)cc2Cl)n3Cc2ccccc2)CC1 [Example R21, (1S,4S)-2-(2-(4-(9-benzyl-6-(1-methylcyclopropoxy)-9H-purin-8-yl)-3-chlorophenoxy)ethyl)-2,5-diazabicyclo[2.2.2]octane]
2.51 | C#CC1(Oc2ncnc3c2nc(-c2ccc(OCCN4CCNCC4)cc2Cl)n3Cc2ccccc2)CC1 [Example Q1, 9-benzyl-8-(2-chloro-4-(2-(piperazin-1-yl)ethoxy)phenyl)-6-(1-ethynylcyclopropoxy)-9H-purine]
2.51 | CC(=O)NCCCOc1ccc(-c2nc3c(OC4(C)CC4)ncnc3n2Cc2ccccc2)c(Cl)c1 [Example D7, N-(3-(4-(9-benzyl-6-(1-methylcyclopropoxy)-9H-purin-8-yl)-3-chlorophenoxy)propyl)acetamide]
3.16 | CC1(Oc2ncnc3c2nc(-c2ccc(OCCN4CCC[C@@H](O)C4)cc2Cl)n3Cc2ccccc2)CC1 [Example R7, (R)-1-(2-(4-(9-benzyl-6-(1-methylcyclopropoxy)-9H-purin-8-yl)-3-chlorophenoxy)ethyl)piperidin-3-ol]
6.31 | CC1(Oc2ncnc3c2nc(-c2ccc(N4CC(N)C4)cc2Cl)n3Cc2ccccc2)CC1 [Example M1, 1-(4-(9-benzyl-6-(1-methylcyclopropoxy)-9H-purin-8-yl)-3-chlorophenyl)azetidin-3-amine]
